Data from paper PMC2867455 (Journal of medicinal chemistry, 2010).

Biological target: T1, PFTase (Saccharomyces cerevisiae, UniProt P22007+P29703)
T1 sequence (P22007 1-431): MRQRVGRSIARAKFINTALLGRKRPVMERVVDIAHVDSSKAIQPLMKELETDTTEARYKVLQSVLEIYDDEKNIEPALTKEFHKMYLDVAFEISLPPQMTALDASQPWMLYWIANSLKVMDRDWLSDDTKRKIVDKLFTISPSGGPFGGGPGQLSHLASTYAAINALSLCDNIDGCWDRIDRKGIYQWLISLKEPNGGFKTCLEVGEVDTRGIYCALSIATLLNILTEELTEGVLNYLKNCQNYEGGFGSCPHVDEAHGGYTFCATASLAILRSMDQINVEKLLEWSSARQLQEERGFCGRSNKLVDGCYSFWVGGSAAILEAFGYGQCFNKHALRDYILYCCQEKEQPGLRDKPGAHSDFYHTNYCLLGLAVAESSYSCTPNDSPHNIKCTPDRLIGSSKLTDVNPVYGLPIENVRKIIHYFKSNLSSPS
T1 sequence (P29703 1-316): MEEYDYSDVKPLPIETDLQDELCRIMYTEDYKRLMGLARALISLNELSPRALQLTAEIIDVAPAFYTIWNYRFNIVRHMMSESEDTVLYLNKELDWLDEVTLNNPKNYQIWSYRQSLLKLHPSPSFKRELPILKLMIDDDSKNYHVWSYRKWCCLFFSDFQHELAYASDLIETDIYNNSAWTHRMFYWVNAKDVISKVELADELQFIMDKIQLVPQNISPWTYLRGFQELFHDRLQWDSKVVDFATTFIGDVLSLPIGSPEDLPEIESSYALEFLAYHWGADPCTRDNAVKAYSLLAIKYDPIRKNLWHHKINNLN
Assay: PFTase in vitro continuous-fluorescence assay
Type: biochemical

Structure (SMILES): Clc1ccc(COC(Cn2ccnc2)c2ccc(Cl)cc2Cl)cc1 (stereo not shown) [Econazole]
- PFTase inhibition (in words): appreciable inhibition
